Assay results published in PMC4490028 (Cancer research, 2015).

Columns and labels:
Abcc3 = assay: Plasma and liver pharmacokinetics after oral sorafenib in Abcc3; format: in vivo, mouse; conditions: after oral sorafenib 10 mg/kg; Abcc3(−/−) mice
Oatp1a/1b;Abcc2 = conditions: after oral sorafenib 10 mg/kg, Oatp1a/1b;Abcc2(−/−) mice
Oatp1a/1b = assay: Plasma and liver pharmacokinetics after oral sorafenib in Oatp1a/1b; format: in vivo, mouse; conditions: after oral sorafenib 10 mg/kg, Oatp1a/1b(−/−) mice
[1] = system: mouse intestinal β-glucuronidases; assay: Ex vivo cecal incubations of SG; format: in vitro ADME; conditions: SG 2 µM
Oatp1a/1b;Abcc2;Abcc3 = conditions: after oral sorafenib 10 mg/kg, Oatp1a/1b;Abcc2;Abcc3(−/−) mice
[2] = format: in vivo, mouse; conditions: oral SG 10 mg/kg, initial study
[3] = Ex vivo microsomal incubation of sorafenib, rat liver microsomes; format: in vitro ADME; conditions: microsomes 1 mg/ml, 10 µM sorafenib, 60 min
Oatp1a/1b;Abcc3 = assay: Plasma and liver pharmacokinetics after oral sorafenib in Oatp1a/1b; format: in vivo, mouse; conditions: after oral sorafenib 10 mg/kg, Oatp1a/1b;Abcc3(−/−) mice

sorafenib-glucuronide [SG]
SG liver-to-plasma ratio relative to Abcc3-proficient counterpart (wildtype) (Abcc3): somewhat increased | plasma SG levels versus wildtype (Abcc3): did not lead to altered | SG liver-to-plasma ratio compared to wildtype mice (Oatp1a/1b;Abcc2): decreased | increase in plasma exposure of SG compared to Oatp1a/1b(−/−) mice (Oatp1a/1b;Abcc2): 12.7 fold | increase in plasma exposure of SG compared to wildtype mice (Oatp1a/1b;Abcc2): 909 fold | liver levels of SG, higher compared to wildtype mice (Oatp1a/1b;Abcc2; at 2 hours): 1.8 fold | SG levels in liver versus wildtype (Oatp1a/1b): only a slight increase | SG liver-to-plasma ratio versus wildtype (Oatp1a/1b): large decrease | increase in plasma levels of SG versus wildtype (Oatp1a/1b): ~ 60 fold | increased plasma levels of SG versus wildtype, experiment terminated at 2 hours (Oatp1a/1b; 2 hours): 125 fold | SG levels in crude suspension of cecal content ([1]; 6-hour period): time-dependent decrease | sorafenib formation from SG after heat-pretreatment of cecal samples ([1]; heat pre-treatment 65°C): abrogation | SG liver-to-plasma ratio compared to wildtype mice (Oatp1a/1b;Abcc2;Abcc3): decreased | SG plasma exposure, reduction compared to Oatp1a/1b;Abcc2(−/−) mice (Oatp1a/1b;Abcc2;Abcc3): 30% | increase in SG liver-to-plasma ratios compared to Oatp1a/1b;Abcc2(−/−) mice (Oatp1a/1b;Abcc2;Abcc3; at 2 hours): 1.7 fold | increase in absolute levels of SG in liver compared to Oatp1a/1b;Abcc2(−/−) mice (Oatp1a/1b;Abcc2;Abcc3; at 2 hours): 1.5 fold | time of elimination of SG from plasma [2]: 1 to 2 h | time of peak SG concentrations [2]: 15 min | SG formation in rat liver microsomes (BLQ, assay limit of SG quantitation) [3]: < 0.26 pmol/min/mg | SG levels in liver versus wildtype (Oatp1a/1b;Abcc3): only a slight increase | SG liver-to-plasma ratio versus wildtype (Oatp1a/1b;Abcc3): large decrease | partial reversal of the increase in SG plasma levels, versus Oatp1a/1b(−/−) mice (Oatp1a/1b;Abcc3): ~ 2 fold | increased plasma levels of SG versus wildtype, experiment terminated at 2 hours (Oatp1a/1b;Abcc3; 2 hours): 56 fold
